Experiments:
Assay type in all cases: cell-based
GLP1 [1] = biological target: T1, GLP1 (Homo sapiens, UniProt P43220); assay: CBA potency assay, GLP1 (Tables 10 and 11); settings: Table 10
GCGR = GCGR (Homo sapiens, UniProt P47871); assay: Glucagon activity in vitro of PEGylated and acylated OXM peptide analogs (Table 12)
Description: The potential benefits of novel acylated OXM products relative to the PEGylated OXM peptide were evaluated for GLP-1 and Glucagon activity in vitro, molecular weight, dosing, and efficacy in a DIO Mouse model.
Novel and acylated long-acting OXM peptide analogs were synthesized and identified with targeted GLP-1 and Glucagon activities. The potency of the acylated OXM peptides was compared with the native OXM peptide alone and Pegylated OXM peptide to evaluate the impact of acylation on GLP-1 and Glucagon activities.

The chains behind the UniProt entries cited, without tags or fusion partners. Residues count along the entry.
UniProt P43220, 24-463: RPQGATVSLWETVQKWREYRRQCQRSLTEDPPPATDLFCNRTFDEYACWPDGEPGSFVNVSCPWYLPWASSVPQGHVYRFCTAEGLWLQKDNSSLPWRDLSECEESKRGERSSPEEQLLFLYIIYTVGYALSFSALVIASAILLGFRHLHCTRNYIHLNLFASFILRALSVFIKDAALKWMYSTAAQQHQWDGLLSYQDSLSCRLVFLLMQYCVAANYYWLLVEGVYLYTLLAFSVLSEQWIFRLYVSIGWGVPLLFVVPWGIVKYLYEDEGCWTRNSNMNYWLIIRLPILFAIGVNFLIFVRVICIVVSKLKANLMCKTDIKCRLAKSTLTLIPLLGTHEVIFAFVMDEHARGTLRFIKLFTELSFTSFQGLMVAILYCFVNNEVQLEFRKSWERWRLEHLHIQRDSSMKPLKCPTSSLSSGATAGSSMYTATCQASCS
UniProt P47871, 26-477: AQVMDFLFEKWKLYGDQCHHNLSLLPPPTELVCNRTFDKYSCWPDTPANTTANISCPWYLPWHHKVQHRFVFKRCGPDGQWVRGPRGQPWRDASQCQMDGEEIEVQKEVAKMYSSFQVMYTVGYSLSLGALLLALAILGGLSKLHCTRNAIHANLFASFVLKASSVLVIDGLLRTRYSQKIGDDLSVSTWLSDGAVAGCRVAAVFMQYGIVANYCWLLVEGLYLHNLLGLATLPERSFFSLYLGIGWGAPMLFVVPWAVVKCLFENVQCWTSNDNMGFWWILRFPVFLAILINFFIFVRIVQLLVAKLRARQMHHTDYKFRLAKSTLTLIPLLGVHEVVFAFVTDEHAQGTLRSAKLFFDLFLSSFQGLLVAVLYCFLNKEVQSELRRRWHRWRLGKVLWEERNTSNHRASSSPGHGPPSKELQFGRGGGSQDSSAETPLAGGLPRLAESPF

GLP1 [2] = biological target: T1, GLP1; assay: GLP-1 activity in vitro of PEGylated and acylated OXM peptide analogs (Table 12); settings: relative to the OXM peptide
[3] = biological target: T2, glucagon-like peptide-1 (GLP1) receptor (Homo sapiens, UniProt P43220); assay: GLP-1 activity EC50 of OXM analogs and GLP-1 therapeutics (Example 4, Table 9); settings: relative to the OXM analog alone
T2 construct: expressed in transfected cells; host or cells: CHO-K1

In the case of “OPK-88003 API: SEQ ID NO: 3 where Xaa38=Cys-PEG20 and Xaa39=Cys-PEG20”, the “% EC50 compare to KPI (GLP1)” value (GLP1 [1]) is reported as 10.8%, the EC50 (GCGR; Table 12) is reported as 16.8 nM and the “decrease of glucagon activity by PEGylation” value (GCGR; relative to the OXM peptide) is reported as “over 20 fold”. For the same substance, the “decrease of GLP-1 activity by PEGylation” value (GLP1 [2]) was 10-15 fold and the “inhibition of GLP-1 activity by PEGylation” value [3] was “over 20 fold”.

Source: US20250326814A1, “MODIFIED OXYNTOMODULIN AND METHODS OF USE THEREOF” (OPKO BIOLOGICS LTD., priority 2024, published 2025)
